# Data as given in publication PMC5751205, “Rapid Non-Enzymatic Glycation of the Insulin Receptor under Hyperglycemic Conditions Inhibits Insulin Binding In Vitro: Implications for Insulin Resistance” (International Journal of Molecular Sciences, 2017).
# The chains behind the UniProt entries cited, without tags or fusion partners. Residues count along the entry.
# UniProt P01308, 25-54: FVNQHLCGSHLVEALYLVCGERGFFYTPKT
# UniProt P01308, 90-110: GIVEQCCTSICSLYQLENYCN
# Entries after “also recorded” stand apart in the source; their conditions may differ.
# What was measured:
# insulin-HRP [1] = target: T1, insulin-HRP (Homo sapiens, UniProt P01308); assay: Effect of glycation on insulin-HRP binding to IR peptides; conditions: for Ins-HRP Binding Inhibition (Glycated): change in Ins-HRP binding at 10 nM after exposure of the peptide to glycating conditions (six days at 20 mM glucose); for Change of INS-HRP binding to the peptide after glycation: 6-day exposure to 20 mM glucose, triplicate, averaged
# Procedure: Insulin receptor peptides (Figure 1) were synthesized by RS Synthesis (Louisville, KY, USA) to at least 95% purity by high pressure liquid chromatography (HPLC) and mass spectrometry. Peptides or recombinant human insulin (rHu) (Lilly, Indianapolis, IN, USA) were dissolved in glucose-free, phenol-red-free, Dulbecco’s modified Eagle growth medium (DMEM) to 1 mg/mL. Stock 2.0 M D-glucose (Sigma-Aldrich, St. Louis, MO, USA) solutions were also made in DMEM. The peptide and glucose stocks were combined to yield final reaction solutions with peptides at 0.1 mg/mL and glucose at […]. Combinations were incubated at 36–38 °C for 1–6 days. Reactions were stopped and solutions were stored by freezing at −20 °C. Glycated peptides were desalted by centrifugal filtration through Ultrafree-MC 5 kda or Ultracel 3 kda filter units. Resulting retentate was resuspended in low ionic strength saline immediately before performing mass spectrometry.
# (§1) Each peptide was held constant at 0.1 mg/mL in pH 7.4 phosphate-buffered saline, and 100 μL aliquots were pipetted into rows of a Costar high-binding ELISA plate and incubated for an hour. The plate was washed 3× with 0.1% Tween 20 (Sigma-Aldrich) in 0.05 M phosphate buffered saline (PBS). Two hundred µL 2% polyvinyl alcohol in PBS were added to each well and incubated 1 h. The plates were then washed 3× again with 0.1% Tween 20. A solution of insulin conjugated to horse-radish peroxidase (HRP), 0.83 µg in 1.0 mL PBS, was made and serially diluted with PBS by thirds, ten times. These serial dilutions were added to the plate wells, incubated for an hour, and then washed 3× as before. Finally, 100 µL of stock ABTS [2,2′-azino-bis(3-ethylbenzothiazoline-6-sulphonic acid)] (Millipore, Burlington, MA, USA) was added to each well, incubated for thirty minutes, and the plate was then read on a SpectraMax Plus scanning microplate spectrophotometer at 405 nm. Controls wells lacking peptide but with PVA, INS-HRP and ABTS measured non-specific binding that was subtracted from the absorbance values of the rest of the wells. All experiments were run in triplicate and the averages of the corrected absorbances were then plotted against the concentration of the INS–HRP for each peptide to yield binding curves. Because binding curves are calculated by plotting differences, it was not possible to incorporate error bars into these curves.
# The same technique just described in Section 4.3 was used to measure the effect of glycation on INS-HRP binding to IR peptides as above with one change: IR peptides were serially diluted instead of the INS-HRP, which was held constant. This methodological modification was made in order to reduce the amount of IR peptide required to obtain results. As in Section 4.3, each experiment was run in triplicate and the results averaged.
# [2] = glucose binding non-covalently to the peptide; ref [41],[42]; cited from earlier work
# Procedure: Table 1 Table summarizing experiments to identify motifs determining insulin-receptor (IR) peptide glycation and whether glycation of IR peptides results in inhibition of insulin binding to these peptides. Specifically, this table provides binding constants glucose binding non-covalently to various insulin receptor (IR) peptides; glycation of the same IR peptides at 20 mM glucose for six days; the | column: Glucose Binding Kd (mM)
# insulin-HRP [3] = target: T1, insulin-HRP; assay: Insulin-HRP binding to IR peptides (ELISA plate, ABTS read-out); conditions: Ins-HRP at 10 nM, IR peptide in the absence of glycation
# Procedure: as §1
SMILES,Ins-HRP Binding Inhibition (Glycated) (insulin-HRP [1]),10 nM Ins-HRP Binding (Native) (insulin-HRP [3]),Change of INS-HRP binding to the peptide after glycation (insulin-HRP [1]),Kd [2] [mM],"Insulin-HRP binding after incubation of the peptide in 200 mM glucose (insulin-HRP [1]; 200 mM glucose, six days)",Change of INS-HRP binding to the peptide after glycation (insulin-HRP [1]; listed as IR 284–298)
CC(C)C[C@H](NC(=O)[C@H](CS)NC(=O)[C@H](CCC(=O)O)NC(=O)[C@H](CO)NC(=O)[C@H](Cc1c[nH]cn1)NC(=O)[C@H](CS)NC(=O)[C@@H](N)CS)C(=O)NCC(=O)N[C@@H](CC(N)=O)C(=O)N[C@@H](CS)C(=O)N[C@@H](CO)C(=O)N[C@@H](CCC(N)=O)C(=O)N1CCC[C@H]1C(=O)N[C@@H](CC(=O)O)C(=O)N[C@@H](CC(=O)O)C(=O)O [233-248],no,no,,46,,
CC(C)C[C@H](NC(=O)[C@H](CC(=O)O)NC(=O)[C@H](CCC(N)=O)NC(=O)[C@H](CS)NC(=O)[C@H](Cc1ccccc1)NC(=O)[C@@H](N)CO)C(=O)N[C@@H](Cc1c[nH]cn1)C(=O)N[C@@H](Cc1c[nH]cn1)C(=O)N[C@@H](CCCCN)C(=O)N[C@@H](CS)C(=O)N[C@@H](CCCCN)C(=O)N[C@@H](CC(N)=O)C(=O)N[C@@H](CO)C(=O)N[C@@H](CCCNC(=N)N)C(=O)N[C@@H](CCCNC(=N)N)C(=O)N[C@@H](CCC(N)=O)C(=O)NCC(=O)O [284–300],INSIGNIF.,YES,,,shifted the curve dramatically to the right,did not alter the affinity; also recorded: negligible effect
CC(C)C[C@H](NC(=O)[C@H](C)NC(=O)[C@H](Cc1ccc(O)cc1)NC(=O)[C@H](Cc1ccccc1)NC(=O)[C@H](CO)NC(=O)[C@@H](N)Cc1ccc(O)cc1)C(=O)N[C@@H](CC(=O)O)C(=O)N[C@@H](CC(N)=O)C(=O)N[C@@H](CCC(N)=O)C(=O)N[C@@H](CC(N)=O)C(=O)N[C@@H](CC(C)C)C(=O)N[C@@H](CCCNC(=N)N)C(=O)N[C@@H](CCC(N)=O)C(=O)N[C@@H](CC(C)C)C(=O)N[C@@H](Cc1c[nH]c2ccccc12)C(=O)N[C@@H](CC(=O)O)C(=O)N[C@@H](Cc1c[nH]c2ccccc12)C(=O)N[C@@H](CO)C(=O)N[C@@H](CCCCN)C(=O)N[C@@H](Cc1c[nH]cn1)C(=O)O [425-444],no,no,,,,

# Continued, in another order:
Ins-HRP Binding Inhibition (Glycated) (insulin-HRP [1]),10 nM Ins-HRP Binding (Native) (insulin-HRP [3]),Change of INS-HRP binding to the peptide after glycation (insulin-HRP [1]),SMILES,Kd [2] [mM],"Insulin-HRP binding after incubation of the peptide in 200 mM glucose (insulin-HRP [1]; 200 mM glucose, six days)",Change of INS-HRP binding to the peptide after glycation (insulin-HRP [1]; listed as IR 284–298)
no,no,,CC[C@H](C)[C@H](NC(=O)[C@H](CCCCN)NC(=O)[C@H](CC(C)C)NC(=O)[C@H](Cc1ccc(O)cc1)NC(=O)CNC(=O)[C@H](CO)NC(=O)[C@@H](NC(=O)[C@@H](N)CCC(=O)O)[C@@H](C)CC)C(=O)N[C@@H](CCCNC(=N)N)C(=O)N[C@@H](CCCNC(=N)N)C(=O)N[C@@H](CO)C(=O)N[C@@H](Cc1ccc(O)cc1)C(=O)N[C@@H](C)C(=O)N[C@@H](CC(C)C)C(=O)N[C@H](C(=O)N[C@@H](CO)C(=O)O)C(C)C [390-405],30,,
no,no,,CC(C)C[C@H](NC(=O)CNC(=O)[C@H](CCCCN)NC(=O)[C@H](CC(C)C)NC(=O)[C@H](CS)NC(=O)[C@H](Cc1ccc(O)cc1)NC(=O)[C@H](CC(=O)O)NC(=O)[C@H](CC(C)C)NC(=O)[C@H](CCC(=O)O)NC(=O)[C@H](Cc1ccccc1)NC(=O)[C@H](CC(C)C)NC(=O)[C@H](CCC(=O)O)NC(=O)[C@H](CO)NC(=O)[C@H](CC(=O)O)NC(=O)[C@H](CCC(=O)O)NC(=O)[C@H](C)NC(=O)[C@H](CCC(N)=O)NC(=O)[C@H](CCCNC(=N)N)NC(=O)[C@@H](N)CCC(=O)O)C(=O)N[C@@H](CCCCN)C(=O)O [660-679],70,,
YES,YES,very significant loss of INS-HRP binding,CC(C)C[C@H](NC(=O)CNC(=O)[C@H](CCCNC(=N)N)NC(=O)[C@H](CC(C)C)NC(=O)[C@H](CCCNC(=N)N)NC(=O)[C@H](CS)NC(=O)CNC(=O)[C@H](CCCNC(=N)N)NC(=O)[C@H](CCC(=O)O)NC(=O)[C@H](CC(C)C)NC(=O)[C@H](C)NC(=O)[C@H](Cc1ccccc1)NC(=O)[C@H](Cc1c[nH]cn1)NC(=O)[C@H](CCCCN)NC(=O)[C@H](CCCNC(=N)N)NC(=O)[C@H](CO)NC(=O)[C@@H](NC(=O)[C@H](CS)NC(=O)[C@H](CC(C)C)NC(=O)[C@@H](N)Cc1c[nH]cn1)C(C)C)C(=O)O [897-916],14,,
